The record followed here is paper PMC8324913, “Development of a CNS-permeable reactivator for nerve agent exposure: an iterative, multi-disciplinary approach” (2021).

Structures are written as SMILES.

In the first assay the target is VX-adducted recombinant human AChE (Homo sapiens, UniProt P22303). In words: Reactivation of VX-adducted acetylcholinesterase. The conditions noted are these: VX-inhibited enzyme, 2 mM compound, measured at 28.9 min.
Take `C[C@@H](CN1CCCc2ccccc2C1)NC(=O)/C=N/O`: the “Maximum reactivation percentage observed” value is 24.8%.

Still in this assay, the particulars now being: VX; oxime 18 µM to 2 mM, 30 min.
Consider `C[C@@H](CN1CCCc2ccccc2C1)NC(=O)/C=N/O`, for which the “Overall reactivation rate, kr2” value was 0.34 ± 0.0483 M⁻¹ s⁻¹ and the “Reactivation rate, kr” value was found to be 0.01 ± 0.0007 min⁻¹.

Another assay concerns the target GB-adducted recombinant human AChE (Homo sapiens, UniProt P22303). Nature of the assay: Reactivation of GB-adducted acetylcholinesterase. The conditions noted are these: GB-inhibited enzyme, 2 mM compound, measured at 33.2 min.
For the compound `C[C@@H](CN1CCCc2ccccc2C1)NC(=O)/C=N/O`, the “Maximum reactivation percentage observed” value is listed as 9.5%.

The same assay, now with this note: GB; oxime 18 µM to 2 mM, 30 min.
Turning to `C[C@@H](CN1CCCc2ccccc2C1)NC(=O)/C=N/O`, the “Overall reactivation rate, kr2” value is 0.113 ± 0.013 M⁻¹ s⁻¹ and the “Reactivation rate, kr” value amounted to 0.004 ± 0.0001 min⁻¹.

For a further assay, the target named is NIMP-adducted acetylcholinesterase (Homo sapiens, UniProt P22303). In words: Acetylcholinesterase reactivation screening (modified Ellman's assay). The conditions noted are these: 100 µM oxime, NIMP-adducted AChE, fraction relative to control AChE.
As to `CCN(CC)CC(C)NC(=O)/C=N/O` (stereo not drawn), the “Fraction reactivated (t = 30 min) (mean)” value turned out to be 0.055.

Turning to `CC(C)CN1CCN(C(=O)/C=N/O)CC1`, the “Fraction reactivated (t = 30 min) (mean)” value amounted to 0.008.

Consider `CC(C)(C)OC(=O)N1CCCC(NC(=O)/C=N/O)C1` (stereo not drawn), for which the “Fraction reactivated (t = 30 min) (mean)” value is listed as 0.025.

As for `CN1CCCN(C(=O)/C=N/O)CC1`, the “Fraction reactivated (t = 30 min) (mean)” value was determined as 0.036.

Regarding `CCCCNC(=O)/C=N/O`, the “Fraction reactivated (t = 30 min) (mean)” value was found to be 0.057.

Regarding `O=C(/C=N/O)N1CCCN(C(=O)/C=N/O)CC1`, the “Fraction reactivated (t = 30 min) (mean)” value is on record as 0.057.

For `CN(C)CCNC(=O)/C=N/O`, the “Fraction reactivated (t = 30 min) (mean)” value was 0.049.

Regarding `CC(C)(C)OC(=O)NCCNC(=O)/C=N/O`, the “Fraction reactivated (t = 30 min) (mean)” value came to 0.054.

Consider `C[C@@H](CN1CCCc2ccccc2C1)NC(=O)/C=N/O`, for which the “Fraction reactivated (t = 30 min) (mean)” value turned out to be 0.104.

Regarding `O=C(/C=N/O)NC1CCC1`, the “Fraction reactivated (t = 30 min) (mean)” value amounted to 0.037.

Take `O=C(/C=N/O)N1CCN(CC2CCCC2)CC1`: the “Fraction reactivated (t = 30 min) (mean)” value was 0.00224.

Consider `CC1CCN(CC(C)NC(=O)/C=N/O)CC1` (stereo not drawn), for which the “Fraction reactivated (t = 30 min) (mean)” value turned out to be 0.089.

For `C[C@@H](CN1CCc2ccccc2CC1)NC(=O)/C=N/O`, the “Fraction reactivated (t = 30 min) (mean)” value turned out to be 0.032.

In the case of `CC(C)(C)OC(=O)N1CC[C@H](NC(=O)/C=N/O)C1`, the “Fraction reactivated (t = 30 min) (mean)” value was found to be 0.011.

For the compound `O=C(/C=N/O)NCCN1CCCCCC1`, the “Fraction reactivated (t = 30 min) (mean)” value came to 0.452.

Consider `O=C(/C=N/O)N1CCC(N2CCCCC2)CC1`, for which the “Fraction reactivated (t = 30 min) (mean)” value was 0.009.

As for `O=C(/C=N/O)NCCCN1CCCCC1`, the “Fraction reactivated (t = 30 min) (mean)” value was 0.045.

With `NCCNC(=O)/C=N/O`, the “Fraction reactivated (t = 30 min) (mean)” value amounted to 0.033.

For `CC(CN(C)C)NC(=O)/C=N/O` (stereo not drawn), the “Fraction reactivated (t = 30 min) (mean)” value is listed as 0.092.

For the compound `O=C(/C=N/O)N1CCN(Cc2ccc(Cl)cc2)CC1`, the “Fraction reactivated (t = 30 min) (mean)” value was -0.00254.

Consider `CN(C)C1CCN(C(=O)/C=N/O)C1` (stereo not drawn), for which the “Fraction reactivated (t = 30 min) (mean)” value was 0.00853.

`CC(CN1CCCCCC1)NC(=O)/C=N/O` (stereo not drawn): the “Fraction reactivated (t = 30 min) (mean)” value is listed as 0.232.

Take `O=C(/C=N/O)NC1CC1`: the “Fraction reactivated (t = 30 min) (mean)” value turned out to be 0.048.

For `O=C(/C=N/O)N1CCN(CCc2cccs2)CC1`, the “Fraction reactivated (t = 30 min) (mean)” value was -0.018.

With `O=C(/C=N/O)NCc1ccccc1`, the “Fraction reactivated (t = 30 min) (mean)” value turned out to be 0.010.

For the compound `CC(C)(C)OC(=O)N1CC(NC(=O)/C=N/O)C1`, the “Fraction reactivated (t = 30 min) (mean)” value worked out at 0.026.

`CCC(CN1CCCC1)NC(=O)/C=N/O` (stereo not drawn): the “Fraction reactivated (t = 30 min) (mean)” value is given as 0.024.

With `O=C(/C=N/O)N1CCN(Cc2cccc(Cl)c2)CC1`, the “Fraction reactivated (t = 30 min) (mean)” value was -0.009.

In the case of `CC(C)(C)OC(=O)NC1CCN(C(=O)/C=N/O)C1` (stereo not drawn), the “Fraction reactivated (t = 30 min) (mean)” value is given as -0.011.

As to `CC(CN1CCCCC1)NC(=O)/C=N/O` (stereo not drawn), the “Fraction reactivated (t = 30 min) (mean)” value amounted to 0.051.

Regarding `O=C(/C=N/O)NCCN1CCCC1`, the “Fraction reactivated (t = 30 min) (mean)” value is on record as 0.144.

For `O=C(/C=N/O)NC1CCCC1`, the “Fraction reactivated (t = 30 min) (mean)” value is -0.00663.

With `O=C(/C=N/O)NCCN1CCOCC1`, the “Fraction reactivated (t = 30 min) (mean)” value is recorded as 0.036.
